Paper PMC6792350 (Environmental Health Perspectives, 2019)

What was measured:
[1] = Population semiphysiologically based 9-compartment TK model (NLME) of plasma and urine data in piglets
Description: The NLME model was therefore developed by combining the plasma and urinary data sets from the five TK experiments carried out in piglets, except for the urinary BPA concentration obtained after oral administration of BPA.
Different compartmental models and submodels were tested and compared using the likelihood ratio test (LRT). The primary parameters of the model, namely the volumes of distribution ( VBPA , VBPAG , VBPS , VBPSG ) and the first-order rate constants ( Kij ) and their associated precisions [standard error (SE)] were estimated by minimizing an objective function value (OFV) expressed as minus twice the log of the likelihood estimation ( −2LL ).
The between-subject variability (BSV) of the parameters was evaluated using the exponential model θparameter_i=θtv_parameter×exp(ηi) , where θparameter_i is the parameter estimated for the i^th individual, θtv_parameter is the typical population value of the parameter, and ηi is the deviation associated with the i^th individual from the corresponding value of the parameter at the population level. The distribution of ηi was assumed to be normal with a mean of 0 and a variance ω² . The BSV was reported as a coefficient of variation (CV) in the original scale CV(%)=100× exp (ω^2)−1 .
The residual variance was modeled using a combined additive and proportional error model Cobsij=Cpredij(1+ε1ij)+ε2ij where Cobsij and Cpredij are respectively the j^th observed and predicted concentrations for the i^th individual and ε1ij and ε2ij the multiplicative and additive residual errors.
The bootstrap tool (20 replicates) was used to evaluate the mean, median, SE, and coefficient of variation of the parameter estimates. The predictive ability of the model was checked graphically by plotting Visual Predictive Check plots to compare the observed data with the selected quantiles (here 20th, 50th and 80th percentiles) of data simulated using the model and obtained from 200–1,000 replicates from each animal based on the structure of the original data (i.e., dosing, timing and number of samples).
For the LRT test, the critical value of the χ^2 distribution considered for a given nominal risk and a given number of degrees of freedom was obtained using the Excel function CHISQ.INV.RT().
Figure 1. Schematic representation of the compartmental model. […] The link between the two central compartments was modeled with a compartment (CP2) that should be viewed as the liver. […] The fraction of absorbed BPA that is not hepatically transformed reaches the CP3 via K23 . The exchanges between CP2 and CP3 are bilateral, K32 being the rate constant between CP3 and CP2 and K23 the rate constant between CP2 and CP3. […] It was assumed that no phase-two metabolite other than BPAG (BPSG) was formed.
(12) Bioavailability=K12/K12+K110+K10×(1−K25/K25+K23) with K10 , K12 , K110 , K23; K25 as defined above.

[2] = Noncompartmental toxicokinetic analysis of plasma after IV dosing in piglets; conditions: from hepatic extraction ratio
Description: Table 1 summarizes the protocol of the experiments and the plasma and urine datasets further considered for TK analyses. A first experiment (Exp. 1) was performed in 8 male piglets age 42 d ( 20.8±1.6kg BW) to investigate oral BPA TK. […] BPA data obtained after IV BPA administrations had already been used to evaluate human BPA clearance using an allometric approach ([Collet et al. 2015]).
For the IV administrations, BPA powder was dissolved in ethanol–propylene glycol (1:49, vol:vol) at 50mg/mL (Exp.1 and 2) and in ethanol–saline (1:2, vol:vol) at 23mg/mL (Exp. 5).
During the first 24 h of sampling, the piglets were housed individually in stainless steel cages.
The plasma analytes concentration–time data from individual piglets were used to derive the maximum concentration (Cmax), and the time to maximum concentration (Tmax). The area under the plasma concentration–time curves from dosing time to the time of the last measurable concentration ( AUC0–tlast ) were calculated using the linear trapezoidal rule (Equation 1). (1) AUC0–tlast=∑0tlast(Ci−1+Ci/2)×(ti−ti−1) where Ci is the concentration obtained at the time i ( ti ).
The area under the plasma concentration time curve from t=0 to infinity ( AUC0–inf ) was obtained using Equation 2. […]

In the case of `O=S(=O)(c1ccc(O)cc1)c1ccc(O)cc1` [BPS, bisphenol S], the “tvK23, distribution rate constant liver to plasma, Mean” value ([1]; bootstrap mean) is reported as 84.0 h⁻¹, the “tvK32, distribution rate constant, Mean” value ([1]; bootstrap mean) is reported as 7.119 h⁻¹ and the “tvK34, distribution rate constant, Mean” value ([1]; bootstrap mean) is reported as 0.270 h⁻¹. For the same molecule, the “tvK43, distribution rate constant, Mean” value ([1]; bootstrap mean) was 0.519 h⁻¹, the “tvK23, distribution rate constant liver to plasma, Median” value ([1]; bootstrap median) was 83.489 h⁻¹ and the “tvK32, distribution rate constant, Median” value ([1]; bootstrap median) was 7.091 h⁻¹. For the same molecule, the “tvK43, distribution rate constant, Median” value ([1]; bootstrap median) was 0.512 h⁻¹, the “fraction of the dose reaching the liver unchanged” value ([1]; oral, % of administered dose) was about 100% and the “hepatic first-pass effect: fraction of compound reaching the liver that is glucuronidated” value ([1]; oral, % of the fraction reaching the liver) was 41%. The “Fraction of administered compound reaching the liver by the portal blood flow, Mean” value ([1]; oral, bootstrap mean) was 0.986, the “Fraction of administered compound reaching the liver by the portal blood flow, Median” value ([1]; oral, bootstrap median) was 0.989 and the “tvV, volume of the central compartment, Mean” value ([1]; population primary parameter, bootstrap mean) was 0.301 L/kg. The “fraction escaping presystemic metabolism” value [2] was 63%.
